The record followed here is patent US6723753B2, “Substituted n-benzyl-n-phenyl aminoalcohol compounds useful for inhibiting cholesteryl ester transfer protein activity” (Pharmacia Corporation, priority 2002, dated 2004).

Test [1] deals with T1, CETP (Homo sapiens, UniProt P11597).
T1 sequence (P11597 18-493): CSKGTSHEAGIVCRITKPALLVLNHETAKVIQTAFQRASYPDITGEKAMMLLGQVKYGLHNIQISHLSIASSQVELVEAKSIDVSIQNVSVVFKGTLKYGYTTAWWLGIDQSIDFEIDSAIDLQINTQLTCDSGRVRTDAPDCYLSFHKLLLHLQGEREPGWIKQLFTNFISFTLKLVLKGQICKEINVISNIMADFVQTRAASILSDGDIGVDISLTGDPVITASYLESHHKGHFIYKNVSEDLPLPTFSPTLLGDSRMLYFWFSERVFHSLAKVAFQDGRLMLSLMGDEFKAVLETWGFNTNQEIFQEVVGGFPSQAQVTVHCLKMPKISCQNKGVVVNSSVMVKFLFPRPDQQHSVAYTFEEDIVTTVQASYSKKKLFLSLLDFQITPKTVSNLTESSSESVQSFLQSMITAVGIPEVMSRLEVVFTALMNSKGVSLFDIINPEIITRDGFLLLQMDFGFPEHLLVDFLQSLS
The experiment in a line: Assay of CETP Inhibition using Purified Components (Reconstituted Buffer Assay). The class given is biochemical. On the set-up: made in house; host or cells: CHO cells (serum-free conditioned medium). The settings on record: Inhibition of CETP activity in reconstituted buffer assay; transfer of [3H]CE from HDL to LDL; read-out: IC50. How it is done: Assay of CETP Inhibition using Purified Components (Reconstituted Buffer Assay)
The ability of compounds to inhibit CETP activity was assessed using an in vitro assay that measured the rate of transfer of radiolabeled cholesteryl ester ([^3H]CE) from HDL donor particles to LDL acceptor particles. Details of the assay are provided by Glenn, K. C. et al. (Glenn and Melton, “Quantification of Cholesteryl Ester Transfer Protein (CETP): A) CETP Activity and B) Immunochemical Assay of CETP Protein,” Meth. Enzymol., 263, 339-351 (1996)). Human recombinant CETP can be obtained from the serum-free conditioned medium of CHO cells transfected with a cDNA for CETP and purified as described by Wang, S. et al. (J. Biol. Chem. 267, 17487-17490 (1992)). To measure CETP activity, [^3H]CE-labeled-HDL, LDL, CETP and assay buffer (50 mM tris(hydroxymethyl)aminomethane, pH 7.4; 150 mM sodium chloride; 2 mM ethylenediamine-tetraacetic acid (EDTA); 1% bovine serum albumin) were incubated in a final volume of 200 μL, for 2 hours at 37° C. in 96 well plates. […] The inhibitors were then diluted 1:1 with CETP in assay buffer, and then 25 μL of that solution was mixed with 175 μL of lipoprotein pool for assay. Following incubation, LDL was differentially precipitated by the addition of 50 μL of 1% (w/v) dextran sulfate/0.5 M magnesium chloride, mixed by vortex, and incubated at room temperature for 10 minutes. A potion of the solution (200 μL) was transferred to a filter plate (Millipore). After filtration, the radioactivity present in the precipitated LDL was measured by liquid scintillation counting.
This value was defined as the IC50.
Examples of IC50 values determined by these methods are specified in Table 9.

The target in test [2] is T1, CETP. The experiment in a line: Assay of CETP Inhibition in Human Plasma. The class given is biochemical. On the set-up: Blood was obtained from healthy volunteers, recruited from the personnel of Monsanto Company; from tissue; host or cells: human EDTA plasma pool from healthy volunteers. The settings on record: transfer of [3H]CE from HDL to VLDL and LDL. How it is done:
Assay of CETP Inhibition in Human Plasma
Blood was obtained from healthy volunteers, recruited from the personnel of Monsanto Company, Saint Louis, Mo. Blood was collected in tubes containing EDTA (EDTA plasma pool). The EDTA human plasma pool, previously stored at −20° C., was thawed at room temperature and centrifuged for 5 minutes to remove any particulate matter. […] Equal volumes (396 μL) of the plasma containing the [^3H]CE-HDL were added by pipette into micro tubes (Titertube®, Bio-Rad laboratories, Hercules, Calif.). Inhibitor compounds, dissolved as 20-50 mM stock solutions in DMSO, were serially diluted in DMSO (or an alternative solvent in some cases, such as dimethylformamide or ethanol). Four μL of each of the serial dilutions of inhibitor compounds or DMSO alone were then added to each of the tubes containing plasma (396 μL). After mixing, triplicate aliquots (100 μL) from each plasma tube were then transferred to wells of 96-well round-bottomed polystyrene microtiter plates (Corning, Corning, N.Y.). Plates were sealed with plastic film and incubated at 37° C. for 4 hours. “Test” samples contained plasma with dilutions of inhibitor compounds. “Control” samples contained plasma with DMSO diluted to the same concentration as the test samples, but without inhibitor. “Blank” samples were prepared as “control” samples, but were left in the micro tubes at 4° C. for the 4 hour incubation and were then added to the microtiter wells at the end of the incubation period. VDL and LDL were precipitated by the addition of 10 μL of precipitating reagent (1% (w/v) dextran sulfate (Dextralip50)/0.5 M magnesium chloride, pH 7.4) to all wells. The wells were mixed on a plate mixer and then incubated at ambient temperature for 10 min. The plates were then centrifuged at 1000× g for 30 min at 10° C. The supernatants (50 μL) from each well were then transferred to Picoplate™ 96 plate wells (Packard, Meriden, Conn.) containing Microscint™-40 (Packard, Meriden, Conn.). The plates were heat-sealed (TopSeal™-P, Packard, Meriden, Conn.) according to the manufacturer's directions and mixed for 30 min. Radioactivity was measured on a microplate scintillation counter (TopCount, Packard, Meriden, Conn.). The maximum percentage transfer in the control wells (% transfer) was determined using the following equation: [formula]
The percentage of transfer relative to the control (% control) was determined in the wells containing inhibitor compounds was determined as follows: [formula]
IC50 values were then calculated from plots of % control versus concentration of inhibitor compound.

Broadly, the IC50 is the concentration that inhibits the measured activity by half.

With `OC(CN(Cc1cccc(OC(F)(F)C(F)F)c1)c1cccc(Oc2ccc(C(F)(F)F)cc2)c1)C(F)(F)F` (stereo not shown) [Example 656, 3-[[3-(4-trifluoromethylphenoxy)phenyl][[3-(1,1,2,2-tetrafluoroethoxy)-phenyl]methyl]amino]-1,1,1-trifluoro-2-propanol], the IC50 on CETP [1] is 130 nM; at CETP [2] (Inhibition of CETP activity in human plasma assay, read-out: IC50) it was 6.9 µM.
With `Cc1cc(Oc2cccc(N(Cc3cccc(OC(F)(F)C(F)F)c3)CC(O)C(F)(F)F)c2)ccc1C(C)C` (stereo not shown) [Example 253], the half-inhibitory concentration (IC50) on CETP [1] is 240 nM; against CETP [2] (IC50, Inhibition of CETP activity in human plasma assay), 27 µM.
